Molecular target: T1, FGFR3 (Homo sapiens, UniProt P22607)
T1 construct: endogenous in cells; host or cells: SUM149 parental cells and SUM149-derived talazoparib-resistant BR cells (BR#09, BR#17)
Assay: Western blot of FGFR phosphorylation in cells treated with MMS and talazoparib
Type: cell-based
Details: BR# 09 and BR# 17 cells; 5 μM FGFRi

The chains behind the UniProt entries cited, without tags or fusion partners. Residues count along the entry.
UniProt P22607, 23-806: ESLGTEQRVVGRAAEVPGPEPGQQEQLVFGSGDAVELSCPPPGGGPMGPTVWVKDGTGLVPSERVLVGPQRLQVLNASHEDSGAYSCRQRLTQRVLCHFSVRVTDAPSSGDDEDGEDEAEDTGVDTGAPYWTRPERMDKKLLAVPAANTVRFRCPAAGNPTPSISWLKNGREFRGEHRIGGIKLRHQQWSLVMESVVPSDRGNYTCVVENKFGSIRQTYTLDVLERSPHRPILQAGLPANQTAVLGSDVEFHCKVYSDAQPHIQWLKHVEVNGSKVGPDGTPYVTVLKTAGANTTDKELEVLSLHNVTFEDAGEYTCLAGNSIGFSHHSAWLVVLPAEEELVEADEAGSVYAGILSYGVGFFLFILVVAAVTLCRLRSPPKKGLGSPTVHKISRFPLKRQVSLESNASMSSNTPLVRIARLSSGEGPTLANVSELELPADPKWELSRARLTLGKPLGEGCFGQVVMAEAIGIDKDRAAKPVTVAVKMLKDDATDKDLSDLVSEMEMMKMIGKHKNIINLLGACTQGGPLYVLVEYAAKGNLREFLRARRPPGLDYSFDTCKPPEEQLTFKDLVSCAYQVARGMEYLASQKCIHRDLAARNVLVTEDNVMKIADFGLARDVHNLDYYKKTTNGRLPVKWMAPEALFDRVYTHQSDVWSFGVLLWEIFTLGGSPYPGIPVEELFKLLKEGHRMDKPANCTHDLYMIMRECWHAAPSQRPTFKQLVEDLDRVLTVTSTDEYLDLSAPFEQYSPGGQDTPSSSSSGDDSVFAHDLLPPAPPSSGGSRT

## AZD4547
  FGFR phosphorylation in response to MMS and talazoparib: inhibited

Source: US20220305015A1, “COMBINATORIAL THERAPY TARGETING PARP1 AND RTK” (Board of Regents, The University of Texas System, priority 2019, published 2022)
